Patent US20110224208A1, “NOVEL INHIBITORS OF FLAVIVIRUS REPLICATION” (KATHOLIEKE UNIVERSITEIT LEUVEN, K.U. LEUVEN R&D, priority 2008, published 2011)
Converted amounts (≈) assume the structure as drawn.

assay: Proliferation of exponentially growing Huh-5-2 cells (MTS method); conditions: human, CC50, concentration required to inhibit the proliferation of exponentially growing Huh-5-2 cells by 50%; Table 2

`COCCN1C(=O)c2cc([N+](=O)[O-])ccc2C(C(=O)Nc2cccc(OC)c2)C1c1cccs1` (stereo not shown) [C3, 2-(2-methoxyethyl)-N-(3-methoxyphenyl)-7-nitro-1-oxo-3-(thiophen-2-yl)-1,2,3,4-tetrahydroisoquinoline-4-carboxamide] and `COCCN1C(=O)c2cc(Cl)ccc2C(C(=O)Nc2cccc(OC)c2)C1c1cccs1` (stereo not shown) [C43, 7-Chloro-2-(2-methoxyethyl)-N-(3-methoxyphenyl)-1-oxo-3-(thiophen-2-yl)-1,2,3,4-tetrahydroisoquinoline-4-carboxamide] are within 1.5-fold of each other in CC50 at 72 h: 65.1 µg/mL (≈ 135 µM) for the first, 70.8 µg/mL (≈ 150 µM) for the second.

Going from `COCCN1C(=O)c2ccccc2C(C(=O)Nc2cccc(OC)c2)C1c1c(F)cccc1F` (stereo not shown) [C10, 3-(2,6-Difluorophenyl)-2-(2-methoxyethyl)-N-(3-methoxyphenyl)-1-oxo-1,2,3,4-tetrahydroisoquinoline-4-carboxamide] to `COCCN1C(=O)c2ccccc2C(C(=O)Nc2cccc(OC)c2)C1c1ccccc1` (stereo not shown) [C28, 2-(2-Methoxyethyl)-N-(3-methoxyphenyl)-1-oxo-3-phenyl-1,2,3,4-tetrahydroisoquinoline-4-carboxamide], the CC50 at 72 h rises from 49.9 µg/mL (≈ 107 µM) to 74.9 µg/mL (≈ 174 µM) (1.5-fold).

`COCCN1C(=O)c2ccccc2C(C(=O)Nc2cccc(OC)c2)C1c1ccc(C)s1` (stereo not shown) [C12, 2-(2-Methoxyethyl)-N-(3-methoxyphenyl)-3-(5-methylthiophen-2-yl)-1-oxo-1,2,3,4-tetrahydroisoquinoline-4-carboxamide] and `COCCN1C(=O)c2ccccc2C(C(=O)Nc2cccc(OC)c2)C1c1cc2ccccc2s1` (stereo not shown) [C27, 3-(Benzo[b]thiophen-2-yl)-2-(2-methoxyethyl)-N-(3-methoxyphenyl)-1-oxo-1,2,3,4-tetrahydroisoquinoline-4-carboxamide] are within 1.5-fold of each other in CC50 at 72 h: 69.7 µg/mL (≈ 155 µM) for the first, 63.8 µg/mL (≈ 131 µM) for the second.

Going from `COc1cccc(NC(=O)C2c3ccccc3C(=O)N(CCN(C)C)C2c2cccs2)c1` (stereo not shown) [C15, 2-(2-(Dimethylamino)ethyl)-N-(3-methoxyphenyl)-1-oxo-3-(thiophen-2-yl)-1,2,3,4-tetrahydroisoquinoline-4-carboxamide] to `CCCCN1C(=O)c2ccccc2C(C(=O)Nc2cccc(OC)c2)C1c1cccs1` (stereo not shown) [C16, 2-Butyl-N-(3-methoxyphenyl)-1-oxo-3-(thiophen-2-yl)-1,2,3,4-tetrahydroisoquinoline-4-carboxamide], the CC50 at 72 h falls from 20.2 µg/mL (≈ 44.8 µM) to 10.4 µg/mL (≈ 23.9 µM) (1.9-fold).

Compared with `COc1cccc(NC(=O)C2c3ccccc3C(=O)N(CC3CCCCC3)C2c2cccs2)c1` (stereo not shown) [C22, 2-(Cyclohexylmethyl)-N-(3-methoxyphenyl)-1-oxo-3-(thiophen-2-yl)-1,2,3,4-tetrahydroisoquinoline-4-carboxamide], `CCN1CCCC1CN1C(=O)c2ccccc2C(C(=O)Nc2cccc(OC)c2)C1c1cccs1` (stereo not shown) [C67, 2-((1-ethylpyrrolidin-2-yl)methyl)-N-(3-methoxyphenyl)-1-oxo-3-(thiophen-2-yl)-1,2,3,4-tetrahydroisoquinoline-4-carboxamide] is 1.7-fold lower in CC50 at 72 h: 36.9 µg/mL (≈ 77.8 µM) for the first, 21.1 µg/mL (≈ 43.2 µM) for the second.

`COCCN1C(=O)c2ccccc2C(C(=O)NCCOc2ccccc2)C1c1cccs1` (stereo not shown) [C34, 2-(2-Methoxyethyl)-1-oxo-N-(2-phenoxyethyl)-3-(thiophen-2-yl)-1,2,3,4-tetrahydroisoquinoline-4-carboxamide] and `COCCN1C(=O)c2ccccc2C(COCc2ccccc2)C1c1cccs1` (stereo not shown) [C76, 4-(benzyloxymethyl)-2-(2-methoxyethyl)-3-(thiophen-2-yl)-3,4-dihydroisoquinolin-1(2H)-one] are within 1.5-fold of each other in CC50 at 72 h: 40.8 µg/mL (≈ 90.5 µM) for the first, 42.2 µg/mL (≈ 104 µM) for the second.

`COCCN1C(=O)c2ccccc2C(C(=O)O)C1c1cccs1` (stereo not shown) [C36, 2-(2-methoxyethyl)-1-oxo-3-(thiophen-2-yl)-1,2,3,4-tetrahydroisoquinoline-4-carboxylic acid] and `COCCN1C(=O)c2ccccc2C(C(=O)Nc2cccc(F)c2)C1c1cccs1` (stereo not shown) [C47, N-(3-fluorophenyl)-2-(2-methoxyethyl)-1-oxo-3-(thiophen-2-yl)-1,2,3,4-tetrahydroisoquinoline-4-carboxamide] are within 1.5-fold of each other in CC50 at 72 h: 82.7 µg/mL (≈ 250 µM) for the first, 98.4 µg/mL (≈ 232 µM) for the second.

`COCCn1c(-c2ccco2)c(C(=O)Nc2cccc(OC)c2)c2ccccc2c1=O` [C38, 3-(furan-2-yl)-2-(2-methoxyethyl)-N-(3-methoxyphenyl)-1-oxo-1,2-dihydroisoquinoline-4-carboxamide] and `COCCN1C(=O)c2ccccc2C(C(=O)Nc2cccc(OC)c2)C1c1cc(C)no1` (stereo not shown) [C104, 2-(2-methoxyethyl)-N-(3-methoxyphenyl)-3-(3-methylisoxazol-5-yl)-1-oxo-1,2,3,4-tetrahydroisoquinoline-4-carboxamide] are within 1.5-fold of each other in CC50 at 72 h: 85.4 µg/mL (≈ 204 µM) for the first, 79.9 µg/mL (≈ 184 µM) for the second.

`COCCN1C(=O)c2ccc(C)cc2C(C(=O)Nc2cccc(OC)c2)C1c1cccs1` (stereo not shown) [C40, 2-(2-Methoxyethyl)-N-(3-methoxyphenyl)-6-methyl-1-oxo-3-(thiophen-2-yl)-1,2,3,4-tetrahydroisoquinoline-4-carboxamide] and `COCCN1C(=O)c2ccc(Cl)cc2C(C(=O)Nc2cccc(OC)c2)C1c1cccs1` (stereo not shown) [C55, 6-chloro-2-(2-methoxyethyl)-N-(3-methoxyphenyl)-1-oxo-3-(thiophen-2-yl)-1,2,3,4-tetrahydroisoquinoline-4-carboxamide] are within 1.5-fold of each other in CC50 at 72 h: 88.1 µg/mL (≈ 195 µM) for the first, 88 µg/mL (≈ 187 µM) for the second.

Compared with `COCCN1C(=O)c2c(C)cccc2C(C(=O)Nc2cccc(OC)c2)C1c1cccs1` (stereo not shown) [C42, 2-(2-Methoxyethyl)-N-(3-methoxyphenyl)-8-methyl-1-oxo-3-(thiophen-2-yl)-1,2,3,4-tetrahydroisoquinoline-4-carboxamide], `COCCN1C(=O)c2c(F)cccc2C(C(=O)Nc2cccc(OC)c2)C1c1cccs1` (stereo not shown) [C51, 8-Fluoro-2-(2-methoxyethyl)-N-(3-methoxyphenyl)-1-oxo-3-(thiophen-2-yl)-1,2,3,4-tetrahydroisoquinoline-4-carboxamide] is 1.9-fold higher in CC50 at 72 h: 33.1 µg/mL (≈ 73.5 µM) for the first, 63.1 µg/mL (≈ 139 µM) for the second.

`COCCN1C(=O)c2ccccc2C(C(=O)Nc2ccc(C(=O)OC)cc2)C1c1cccs1` (stereo not shown) [C45, Methyl 4-(2-(2-methoxyethyl)-1-oxo-3-(thiophen-2-yl)-1,2,3,4-tetrahydroisoquinoline-4-carboxamido)benzoate] and `COCCN1C(=O)c2ccccc2C(C(=O)Nc2ccc(Cl)cc2)C1c1cccs1` (stereo not shown) [C49, N-(4-chlorophenyl)-2-(2-methoxyethyl)-1-oxo-3-(thiophen-2-yl)-1,2,3,4-tetrahydroisoquinoline-4-carboxamide] are within 1.5-fold of each other in CC50 at 72 h: 72.6 µg/mL (≈ 156 µM) for the first, 96.8 µg/mL (≈ 220 µM) for the second.

First: COCCN1C(=O)c2ccccc2C(C(=O)Nc2ccc(OC)c(OC)c2)C1c1cccs1 (stereo not shown) [C48, N-(3,4-dimethoxyphenyl)-2-(2-methoxyethyl)-1-oxo-3-(thiophen-2-yl)-1,2,3,4-tetrahydroisoquinoline-4-carboxamide]
Second: COCCN1C(=O)c2ccccc2C(C(=O)Nc2ccc(Cl)c(Cl)c2)C1c1cccs1 (stereo not shown) [C87, N-(3,4-dichlorophenyl)-2-(2-methoxyethyl)-1-oxo-3-(thiophen-2-yl)-1,2,3,4-tetrahydroisoquinoline-4-carboxamide]
The CC50 at 72 h of the first is 24-fold higher: 102 µg/mL (≈ 219 µM) for the first, 4.34 µg/mL (≈ 9.13 µM) for the second.

Compared with `COCCN1C(=O)c2cc(I)ccc2C(C(=O)Nc2cccc(OC)c2)C1c1cccs1` (stereo not shown) [C56, 7-Iodo-2-(2-methoxyethyl)-N-(3-methoxyphenyl)-1-oxo-3-(thiophen-2-yl)-1,2,3,4-tetrahydroisoquinoline-4-carboxamide], `COCCN1C(=O)c2cc(C(F)(F)F)ccc2C(C(=O)Nc2cccc(OC)c2)C1c1cccs1` (stereo not shown) [C92, 2-(2-methoxyethyl)-N-(3-methoxyphenyl)-1-oxo-3-(thiophen-2-yl)-7-(trifluoromethyl)-1,2,3,4-tetrahydroisoquinoline-4-carboxamide] is 1.6-fold higher in CC50 at 72 h: 44 µg/mL (≈ 78.2 µM) for the first, 68.9 µg/mL (≈ 137 µM) for the second.

`CCC1C(C(=O)Nc2cccc(OC)c2)c2ccccc2C(=O)N1CCOC` (stereo not shown) [C58, 3-Ethyl-2-(2-methoxyethyl)-N-(3-methoxyphenyl)-1-oxo-1,2,3,4-tetrahydroisoquinoline-4-carboxamide] and `COc1cccc(NC(=O)C2c3ccccc3C(=O)N(CCSC)C2c2cccs2)c1` (stereo not shown) [C63, N-(3-methoxyphenyl)-2-(2-(methylthio)ethyl)-1-oxo-3-(thiophen-2-yl)-1,2,3,4-tetrahydroisoquinoline-4-carboxamide] are within 1.5-fold of each other in CC50 at 72 h: 85 µg/mL (≈ 222 µM) for the first, 81.6 µg/mL (≈ 180 µM) for the second.

`COCCN1C(=O)c2ccccc2C(C(=O)Nc2cccc(Cl)c2)C1c1cccs1` (stereo not shown) [C60, N-(3-chlorophenyl)-2-(2-methoxyethyl)-1-oxo-3-(thiophen-2-yl)-1,2,3,4-tetrahydroisoquinoline-4-carboxamide] and `COCCN1C(=O)c2ccccc2C(C(=O)Nc2cccc(C)c2)C1c1cccs1` (stereo not shown) [C85, 2-(2-methoxyethyl)-1-oxo-3-(thiophen-2-yl)-N-m-tolyl-1,2,3,4-tetrahydroisoquinoline-4-carboxamide] are within 1.5-fold of each other in CC50 at 72 h: 86.9 µg/mL (≈ 197 µM) for the first, 75 µg/mL (≈ 178 µM) for the second.

`COCCN1C(=O)c2cccc(F)c2C(C(=O)Nc2cccc(OC)c2)C1c1cccs1` (stereo not shown) [C61, 5-Fluoro-2-(2-methoxyethyl)-N-(3-methoxyphenyl)-1-oxo-3-(thiophen-2-yl)-1,2,3,4-tetrahydroisoquinoline-4-carboxamide] and `COCCN1C(=O)c2c(F)ccc(F)c2C(C(=O)Nc2cccc(OC)c2)C1c1cccs1` (stereo not shown) [C91, 5,8-difluoro-2-(2-methoxyethyl)-N-(3-methoxyphenyl)-1-oxo-3-(thiophen-2-yl)-1,2,3,4-tetrahydroisoquinoline-4-carboxamide] are within 1.5-fold of each other in CC50 at 72 h: 62.6 µg/mL (≈ 138 µM) for the first, 45.1 µg/mL (≈ 95.4 µM) for the second.

First: CCN1CCC[C@H]1CN1C(=O)c2ccccc2C(C(=O)Nc2cccc(OC)c2)C1c1cccs1 (stereo partly drawn) [C74, 2-(((S)-1-ethylpyrrolidin-2-yl)methyl)-N-(3-methoxyphenyl)-1-oxo-3-(thiophen-2-yl)-1,2,3,4-tetrahydroisoquinoline-4-carboxamide]
Second: COCCN1C(=O)c2ccccc2C(C(=O)Nc2ccc(F)c(Cl)c2)C1c1cccs1 (stereo not shown) [C94, N-(3-chloro-4-fluorophenyl)-2-(2-methoxyethyl)-1-oxo-3-(thiophen-2-yl)-1,2,3,4-tetrahydroisoquinoline-4-carboxamide]
The CC50 at 72 h of the first is 4.9-fold higher: 84.4 µg/mL (≈ 172 µM) for the first, 17.1 µg/mL (≈ 37.2 µM) for the second.

In the case of `COCCN1C(=O)c2ccccc2C(C(=O)Nc2ccccc2-c2ccccc2)C1c1cccs1` (stereo not shown) [C84, N-(biphenyl-2-yl)-2-(2-methoxyethyl)-1-oxo-3-(thiophen-2-yl)-1,2,3,4-tetrahydroisoquinoline-4-carboxamide], the CC50 at 72 h is reported as 50 µg/mL (≈ 104 µM).

same assay, conditions: human, CC50, concentration required to inhibit the proliferation of exponentially growing Huh-5-2 cells by 50%; Table 4

`COCCN1C(=O)c2ccccc2C(C(=O)Nc2ccc(C(=O)OC)cc2)C1c1cccs1` (stereo not shown) [C45, Methyl 4-(2-(2-methoxyethyl)-1-oxo-3-(thiophen-2-yl)-1,2,3,4-tetrahydroisoquinoline-4-carboxamido)benzoate] and `COCCN1C(=O)c2ccccc2C(C(=O)Nc2ccc(Cl)cc2)C1c1cccs1` (stereo not shown) [C49, N-(4-chlorophenyl)-2-(2-methoxyethyl)-1-oxo-3-(thiophen-2-yl)-1,2,3,4-tetrahydroisoquinoline-4-carboxamide] cannot be ordered by CC50 at 72 h: > 50 µg/mL for the first, > 50 µg/mL for the second.

`COCCN1C(=O)c2ccccc2C(C(=O)Nc2cccc(F)c2)C1c1cccs1` (stereo not shown) [C47, N-(3-fluorophenyl)-2-(2-methoxyethyl)-1-oxo-3-(thiophen-2-yl)-1,2,3,4-tetrahydroisoquinoline-4-carboxamide] and `COCCN1C(=O)c2ccccc2C(C(=O)Nc2ccc(OC)c(OC)c2)C1c1cccs1` (stereo not shown) [C48, N-(3,4-dimethoxyphenyl)-2-(2-methoxyethyl)-1-oxo-3-(thiophen-2-yl)-1,2,3,4-tetrahydroisoquinoline-4-carboxamide] cannot be ordered by CC50 at 72 h: > 50 µg/mL for the first, > 50 µg/mL for the second.

For `COCCN1C(=O)c2c(F)cccc2C(C(=O)Nc2cccc(OC)c2)C1c1cccs1` (stereo not shown) [C51, 8-Fluoro-2-(2-methoxyethyl)-N-(3-methoxyphenyl)-1-oxo-3-(thiophen-2-yl)-1,2,3,4-tetrahydroisoquinoline-4-carboxamide], the CC50 at 72 h was > 50 µg/mL.
